The values below come from PubChem BioAssay AID902 (National Center for Advancing Translational Sciences (NCATS), 2007).

SMILES strings stand for the structures. The list shows a part of the results, in another mix than the full data. Some results for these compounds are left out of this collection, so the calls shown say nothing about other tests. Inconclusive results are not listed. Active and inactive are the calls of the source. Calls come from the whole dose curve; as a rule, active = well fitted cell-killing curve with a large enough effect; inconclusive = small, poorly fitted or top-dose-only effect; inactive = no such curve, though single readings can be large or run the other way.
% is set by controls: 0 for no effect and ±100 for the full control effect.

This assay can be described thus: qHTS Screen for Compounds that Selectively Target Cancer Cells with p53 Mutations: Cytotoxicity of p53ts Cells at the Nonpermissive Temperature. Note: nearly all actives have a fitted effect of over 55% in size. The settings on record: H1299-p53A138V viability at 39C, ATP luminescence, 24 h; at 46.1 µM (top of the series) unless noted.
Consider `CN(C)C1(CNC(=O)c2cccc(Cl)c2)CCCCC1`, for which the activity change, negative = cell killing is inactive: 28.5%.
`CN(C)C1(CNC(=O)c2ccccc2F)CCCCC1`: the activity change, negative = cell killing was inactive: 8%.
To `CN(C)C1CCCC1OC(=O)C(O)(c1ccccc1)c1ccccc1` (configuration not stated) belongs inactive: 13.7%.
To `CN(C)C1(CNC(=O)c2ccccc2[N+](=O)[O-])CCCCC1` belongs inactive: -2.85%; to `CCCCOc1ccccc1C(=O)NCC1(N(C)C)CCCCC1`, inactive: 14.9%.
`CCOc1cccc(C(=O)NCC2(N(C)C)CCCCC2)c1`: the activity change, negative = cell killing was inactive: 36.7%.
Consider `COc1ccc(C(=O)NCC2(N(C)C)CCCCC2)cc1Cl`, for which the activity change, negative = cell killing was inactive: -3.91%.
As for `CN1CC[C@H](OC(=O)[C@](O)(c2ccccc2)C2CCCC2)C1`, the activity change, negative = cell killing is inactive: 9.44% [at 9.22 µM].
Turning to `O=C(OC1CN2CCC1CC2)C(CO)(c1ccccc1)c1ccccc1` (configuration not stated), the activity change, negative = cell killing is inactive: 0.946%.
Consider `CN1CCC[C@H](OC(=O)[C@](O)(c2ccccc2)C2CCCC2)C1`, for which the activity change, negative = cell killing was inactive: 11.9% [at 9.22 µM].
To `COc1cccc(C(=O)NCC2(N3CCOCC3)CCCCC2)c1` belongs inactive: -6.73%; to `C=C(C)C#C[C@@](O)(C(=O)OC1CCN(C)CC1)c1ccccc1`, inactive: 6.98% [at 9.22 µM].
As to `CC(C)COc1ccc(C(=O)NCC2(N(C)C)CCCCC2)cc1`, the activity change, negative = cell killing is inactive: 11%.
To `Cc1cccc(C(=O)NCC2(N(C)C)CCCCC2)c1` belongs inactive: 13.2%; to `COc1cc(C(=O)NCC2(N(C)C)CCCCC2)cc(OC)c1OC`, inactive: 34.4%; to `CN(C)c1cccc(C(=O)NCC2(N(C)C)CCCCC2)c1`, inactive: 4.73%.
`CC(C)Oc1ccc(C(=O)NCC2(N(C)C)CCCCC2)cc1`: the activity change, negative = cell killing is inactive: -1.14%.
